Earlier results, collected in US10583106B2, “Method of treating cancer by oral administration of acetate composition comprising magnesium acetate, calcium acetate or ethylacetate” (priority 2015, dated 2020).

System: MeCP2 knockdown in human SK-NSH cells
Conditions: text; Vecsler, 2010; cited from earlier work

## CCCC(CCC)C(=O)O [Valproic acid]
  BDNF: increased
